Data from patent publication EP4631938A1, “NITROGEN-CONTAINING HETEROCYCLE WITH SEROTONIN RECEPTOR-BINDING ACTIVITY AND CARBOCYCLIC DERIVATIVE” (Shionogi & Co., Ltd, priority 2022, dated 2024).

Chains of the proteins cited; added tags and fusions are not shown. Residues count along the entry.
UniProt P28335, 33-458 limits assumed: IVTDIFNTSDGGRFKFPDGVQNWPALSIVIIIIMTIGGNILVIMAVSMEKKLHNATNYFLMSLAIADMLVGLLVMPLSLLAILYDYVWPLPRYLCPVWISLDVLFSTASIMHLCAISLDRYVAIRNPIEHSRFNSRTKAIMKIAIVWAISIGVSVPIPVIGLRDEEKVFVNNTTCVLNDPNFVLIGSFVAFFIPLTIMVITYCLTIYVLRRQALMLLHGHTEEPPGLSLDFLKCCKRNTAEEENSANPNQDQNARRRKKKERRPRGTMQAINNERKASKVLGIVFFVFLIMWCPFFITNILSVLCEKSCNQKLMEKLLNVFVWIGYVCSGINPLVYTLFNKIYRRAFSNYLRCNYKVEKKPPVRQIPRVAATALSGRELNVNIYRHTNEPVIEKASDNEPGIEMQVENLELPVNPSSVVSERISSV

Target: human recombinant 5-HT2C receptor (Homo sapiens, UniProt P28335)
Assay: Test Example 2-2: 5-HT2C receptor binding inhibition test ([3H]-Mesulergine; non-specific ligand Ketanserin)
Conditions: read-out: h 5-HT2C Ki, non-specific binding with 500 µmol/L Ketanserin, 37°C, 2 hours
Experimental: • Cell membrane: 0.5 µg of Jump-In HEK cell membrane (expressing human recombinant 5-HT2C receptor) per well • Assay buffer: 50 mmol/L Tris-HCl (pH 7.4) containing 120 mmol/L NaCl, 1 mmol/L MgCl2·6H2O, 5 mmol/L KCl, 0.1% BSA, and 2 mmol/L CaCl2 • Radioactive ligand: [^3H]-Mesulergine with a final concentration of around Kd value calculated by the following method • Non-specific ligand: Ketanserin at a final concentration of 500 µmol/L
The Kd value is calculated when the lot of the cell membrane is changed. 1 mmol/L non-specific binding calculating compound dissolved in DMSO or DMSO is previously dispensed to the microplate by 0.5 µL, and the cell membrane is diluted with an Assay buffer. […] The radioactivity of [^3H]-Mesulergine bound to the 5-HT2C receptor is measured using Microbeta2 (PerkinElmer) at a measurement time of 1 min/well. The Saturation curve is drawn from the measured value, and the Kd value is calculated from the slope of the Scatchard Plot.
A compound solution dissolved in DMSO is dispensed to a microplate by 0.5 µL, and a cell membrane and a hot ligand are each diluted with an Assay buffer. […] The radioactivity of [^3H]-Mesulergine bound to the 5-HT2C receptor is measured using Microbeta2 (PerkinElmer) at a measurement time of 1 min/well. […] Finally, the Ki value is calculated from the dose-response curve. […]

| SMILES | Ki |
| --- | --- |
| Cc1nc(C)c(-c2cc(Nc3ncc(C(F)(F)F)cc3F)c(F)cc2OCCO)c(C)n1 [Compound I-146] | 3.82 nM |
| Cn1ncc(Br)c1-c1cc(Nc2ncc(Cl)cn2)ccc1OCCO [Compound I-119] | 2.09 nM |
